Measurements from patent publication US20260279694A1, “ELECTROLYTE SOLUTION FOR HYBRID ELECTROLYTIC CAPACITORS AND HYBRID ELECTROLYTIC CAPACITOR” (SANYO CHEMICAL INDUSTRIES, LTD., priority 2023, published 2026).

Experiment: Measurement of acid dissociation constant (pKa) by titration in methanol
Type: physicochemical
Conditions: 25° C.; 1 part by weight acid in 99 parts methanol titrated with 0.1 mol/L methanolic potassium hydroxide; pH at half the titrant of first equivalence point
Protocol: At 25° C., 99 parts by weight of methanol was added to 1 part by weight of a carboxylic acid (A), and the contents were shaken and mixed until the carboxylic acid (A) was completely dissolved. A 0.1 mol/L methanolic potassium hydroxide solution was added dropwise to the resulting methanol solution of the carboxylic acid (A) to obtain a titration curve having inflection points, and among the inflection points, an inflection point at which the amount of titrant added was the smallest was defined as an equivalence point. The pH at half the amount of titrant added at the equivalence point on the obtained titration curve was read, and the pH was defined as the acid dissociation constant (pKa) of the carboxylic acid (A).
The pKa of the acid component (A′) was also measured in the same manner as the pKa of the carboxylic acid (A).

Substance: trimellitic acid ethylene glycol monoester [Example A3]
- Acid dissociation constant (pKa): 3.4

Substance: phthalic acid polyethylene glycol monoester [Example A9]
- Acid dissociation constant (pKa): 4.2

Substance: phthalic acid polypropylene glycol monoester [Example A8]
- Acid dissociation constant (pKa): 3.9

Substance: phthalic acid glycerol monoester [Example A12]
- Acid dissociation constant (pKa): 3.7
